# Measured values: ChEMBL document CHEMBL4364256, “Design, synthesis and biological evaluation of antimicrobial diarylimine and -amine compounds targeting the interaction between the bacterial NusB and NusE proteins” (Eur J Med Chem, 2019)
# Legend:
# Staphylococcus aureus [1] = conditions: ATCC 25923
# Staphylococcus aureus [2] = conditions: ATCC 29213
# [3] = tested on: Enterobacter cloacae subsp. cloacae; conditions: ATCC 13047
# Staphylococcus aureus [4] = conditions: W45 ST59
# Staphylococcus aureus [5] = conditions: W46 ST59
# Staphylococcus aureus [6] = conditions: USA300 ST8
# Staphylococcus aureus [7] = conditions: W48 ST217
sequence,measurement,setting,value
GENTAMICIN,MIC,Staphylococcus aureus [1],0.5 to 1 µg/mL
same,MIC,Staphylococcus aureus [2],0.5 to 1 µg/mL
same,MIC,[3],0.5 µg/mL
same,MIC,Staphylococcus aureus [4],0.5 µg/mL
same,MIC,Staphylococcus aureus [5],0.5 µg/mL
same,MIC,Staphylococcus aureus [6],0.5 µg/mL
same,MIC,Staphylococcus aureus [7],0.5 µg/mL
